What was measured:
NET = target: T1, NET (Rattus norvegicus, UniProt Q63380); assay: Synaptosomal uptake of [3H]NE in rat brain synaptosomes; assay type: biochemical
T1 construct: Synaptosomes from rat cerebrum were isolated as described by Bogen et al; from tissue; host or cells: rat cerebrum synaptosomes

The chains behind the UniProt entries cited, without tags or fusion partners. Residues count along the entry.
UniProt Q63380, 1-617: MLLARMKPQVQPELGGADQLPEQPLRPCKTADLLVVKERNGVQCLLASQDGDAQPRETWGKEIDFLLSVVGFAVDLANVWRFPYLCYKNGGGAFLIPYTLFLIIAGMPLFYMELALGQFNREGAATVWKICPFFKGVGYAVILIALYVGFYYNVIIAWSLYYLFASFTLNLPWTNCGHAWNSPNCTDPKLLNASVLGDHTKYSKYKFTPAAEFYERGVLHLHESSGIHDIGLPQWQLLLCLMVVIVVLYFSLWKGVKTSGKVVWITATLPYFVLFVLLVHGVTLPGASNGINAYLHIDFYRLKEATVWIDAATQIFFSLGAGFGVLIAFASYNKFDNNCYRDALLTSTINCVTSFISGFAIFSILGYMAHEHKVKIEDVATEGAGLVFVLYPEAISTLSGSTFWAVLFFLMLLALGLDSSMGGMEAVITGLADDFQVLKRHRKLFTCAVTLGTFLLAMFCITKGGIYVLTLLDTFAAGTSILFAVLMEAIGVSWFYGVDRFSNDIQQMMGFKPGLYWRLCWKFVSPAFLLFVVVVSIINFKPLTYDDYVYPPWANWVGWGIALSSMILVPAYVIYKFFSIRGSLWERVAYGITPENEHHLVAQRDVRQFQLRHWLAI
UniProt P31652, whole entry: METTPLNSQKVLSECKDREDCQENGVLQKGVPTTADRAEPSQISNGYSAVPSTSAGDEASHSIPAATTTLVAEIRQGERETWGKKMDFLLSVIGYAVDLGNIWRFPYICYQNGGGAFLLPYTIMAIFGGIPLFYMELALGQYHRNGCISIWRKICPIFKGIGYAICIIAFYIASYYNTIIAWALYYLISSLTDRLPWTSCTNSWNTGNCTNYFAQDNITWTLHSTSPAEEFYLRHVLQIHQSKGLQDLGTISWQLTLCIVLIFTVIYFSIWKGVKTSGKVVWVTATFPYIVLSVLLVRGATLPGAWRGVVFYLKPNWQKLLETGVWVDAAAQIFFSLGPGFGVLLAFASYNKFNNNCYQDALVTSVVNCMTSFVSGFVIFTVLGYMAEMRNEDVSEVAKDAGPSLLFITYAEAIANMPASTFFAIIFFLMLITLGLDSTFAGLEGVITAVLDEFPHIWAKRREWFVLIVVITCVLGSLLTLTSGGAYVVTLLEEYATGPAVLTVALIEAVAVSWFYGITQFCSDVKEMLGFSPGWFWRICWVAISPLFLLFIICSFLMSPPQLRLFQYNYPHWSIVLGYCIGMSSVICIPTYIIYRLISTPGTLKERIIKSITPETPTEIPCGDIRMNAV

[1] = system: DA, 3-MT, DOPAC, 5-HT and 5-HIAA in dorsal striatum and nucleus accumbens; assay: Neurotransmitter and metabolite concentrations in post-mortem mouse brain tissue; assay type: in vivo; details: 20 min after 12.5 mg/kg i.p.
SERT = target: T2, SERT (Rattus norvegicus, UniProt P31652); assay: Synaptosomal uptake of [3H]5-HT in rat brain synaptosomes; assay type: biochemical; details: IC50 Synaptosomes [3H]5-HT Uptake via SERT
T2 construct: Synaptosomes from rat cerebrum were isolated as described by Bogen et al; from tissue; host or cells: rat cerebrum synaptosomes

## CN[C@@H](C)Cc1ccccc1 [methamphetamine]
NET
  IC50: 80 nM
[1]; Dorsal Striatum
  3-MT concentration: 5.9 ± 0.6 nmol/g
  5-HT concentration: 1.8 ± 0.2 nmol/g
  DA concentration: 109.6 ± 19.4 nmol/g
[1]; Nucleus Accumbens
  3-MT concentration: 2.9 ± 0.4 nmol/g
  5-HT concentration: 5.6 ± 1.4 nmol/g
  DA concentration: 54.6 ± 10.4 nmol/g
SERT
  IC50: 4900 ± 390 nM
